# Laboratory results published in patent EP4671247A1, “SUBSTITUTED PYRAZOLOPYRIMIDINE COMPOUND AND PHARMACEUTICAL USE THEREOF” (Japan Tobacco Inc., priority 2023, dated 2024).
# Protein sequences, listed by entry. Tags and fused reporters are not part of them.
# UniProt Q96P20, whole entry: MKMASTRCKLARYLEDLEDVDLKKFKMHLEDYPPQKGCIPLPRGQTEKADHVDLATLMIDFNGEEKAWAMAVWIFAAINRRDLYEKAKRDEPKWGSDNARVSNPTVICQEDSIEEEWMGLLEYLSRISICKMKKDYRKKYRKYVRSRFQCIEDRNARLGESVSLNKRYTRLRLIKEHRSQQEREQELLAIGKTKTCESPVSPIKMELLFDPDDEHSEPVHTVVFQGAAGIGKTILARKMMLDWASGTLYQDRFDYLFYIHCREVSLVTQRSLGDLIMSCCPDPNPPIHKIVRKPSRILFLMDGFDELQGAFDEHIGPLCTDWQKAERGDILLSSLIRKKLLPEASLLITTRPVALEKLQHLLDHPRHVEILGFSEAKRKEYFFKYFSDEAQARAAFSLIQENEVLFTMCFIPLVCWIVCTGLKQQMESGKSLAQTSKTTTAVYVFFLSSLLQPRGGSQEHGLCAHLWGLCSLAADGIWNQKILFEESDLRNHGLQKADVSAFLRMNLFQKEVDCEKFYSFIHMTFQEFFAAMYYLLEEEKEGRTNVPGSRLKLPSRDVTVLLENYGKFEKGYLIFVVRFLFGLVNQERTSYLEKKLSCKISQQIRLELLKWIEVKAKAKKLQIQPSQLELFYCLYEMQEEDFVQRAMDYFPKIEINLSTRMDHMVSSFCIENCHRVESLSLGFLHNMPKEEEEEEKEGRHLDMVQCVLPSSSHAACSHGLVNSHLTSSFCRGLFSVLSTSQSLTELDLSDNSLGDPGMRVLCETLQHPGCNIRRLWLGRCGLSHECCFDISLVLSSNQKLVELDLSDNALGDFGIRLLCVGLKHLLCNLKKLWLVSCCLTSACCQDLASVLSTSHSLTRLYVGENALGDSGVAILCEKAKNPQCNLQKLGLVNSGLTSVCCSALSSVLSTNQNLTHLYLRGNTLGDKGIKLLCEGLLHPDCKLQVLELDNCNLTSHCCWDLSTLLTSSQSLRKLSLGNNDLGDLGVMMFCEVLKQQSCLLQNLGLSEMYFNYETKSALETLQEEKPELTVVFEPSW
# Target: NLRP3 inflammasome (Homo sapiens, UniProt Q96P20)
# Test: Evaluation of NLRP3 inflammasome inhibitory activity (inhibition of IL-1β production in LPS/Nigericin-stimulated THP1-Null cells, AlphaLISA)
# Details: IL-1β production in THP1-Null cells; PMA, 1 µg/mL Lipopolysaccharides 3 hours, Nigericin 7.5 µmol/L 1.5 hours
smiles,measurement,value
Cc1cc(Br)cc(C)c1-n1cc2c(=O)[nH]c(C34CCOC(CO3)C4)nc2n1 (racemic),IC50,180 nM
